Laboratory results taken from BindingDB's records for US10807989.

Amino acid sequences for entries named in this document (tags omitted). A change or cut given only in a name is not applied to a line headed by its entry.
UniProt P41146: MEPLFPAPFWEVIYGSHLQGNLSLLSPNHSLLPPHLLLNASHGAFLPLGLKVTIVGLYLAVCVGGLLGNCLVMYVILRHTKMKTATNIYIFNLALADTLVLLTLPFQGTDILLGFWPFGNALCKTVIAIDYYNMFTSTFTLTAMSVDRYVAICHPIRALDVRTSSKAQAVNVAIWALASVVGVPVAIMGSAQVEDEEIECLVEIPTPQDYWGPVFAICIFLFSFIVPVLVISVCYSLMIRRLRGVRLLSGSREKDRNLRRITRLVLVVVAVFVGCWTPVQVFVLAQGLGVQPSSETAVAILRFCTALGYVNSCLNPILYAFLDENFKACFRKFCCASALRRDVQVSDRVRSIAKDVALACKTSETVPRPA
UniProt P35372, whole entry, looked up: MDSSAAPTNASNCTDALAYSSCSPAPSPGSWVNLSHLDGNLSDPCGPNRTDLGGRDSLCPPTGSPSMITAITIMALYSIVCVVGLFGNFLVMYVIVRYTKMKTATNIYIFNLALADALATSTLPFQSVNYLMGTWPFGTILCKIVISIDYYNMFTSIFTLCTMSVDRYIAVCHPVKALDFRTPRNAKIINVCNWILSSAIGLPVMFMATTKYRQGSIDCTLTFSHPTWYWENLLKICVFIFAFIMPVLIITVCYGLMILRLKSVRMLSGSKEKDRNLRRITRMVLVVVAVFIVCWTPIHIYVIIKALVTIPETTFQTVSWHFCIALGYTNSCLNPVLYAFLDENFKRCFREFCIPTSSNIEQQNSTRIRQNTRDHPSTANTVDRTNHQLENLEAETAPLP

target: Nociceptin receptor (Homo sapiens, UniProt P41146); assay: Human Nociceptin/Orphanin FQ Peptide (hNOP) Receptor Binding Assay

Structure (SMILES)	pKi
CN(C)[C@]1(c2ccccc2)CC[C@]2(CC1)CN(CC(=O)Nc1cccc(C(N)=O)n1)C(=O)N2CC1CCC1	9.10
CN(C)[C@]1(c2ccccc2)CC[C@]2(CC1)CN(CC(=O)Nc1cnc(O)nc1)C(=O)N2CC1CCC1	8.01
CN(C)[C@]1(c2cccc(F)c2)CC[C@]2(CC1)CN(CC(=O)OC(C)(C)C)C(=O)N2CC1CCC1	8.70
COc1ccc(NC(=O)CN2C[C@]3(CC[C@](c4ccccc4)(N(C)C)CC3)N(CC3CCC3)C2=O)nc1	8.80
COCCOCCOCCOCCOCCOCCOCCNC(=O)CN1C[C@]2(CC[C@](c3ccccc3)(N(C)C)CC2)N(CC2CCC2)C1=O	7.48 and 7.46
CN(C)[C@]1(c2ccccc2)CC[C@]2(CC1)CN(CC(=O)Nc1ccnc(C#N)n1)C(=O)N2CC1CCC1	8.72
CN(C)[C@]1(c2ccccc2)CC[C@@]2(CC1)CN(CC(=O)N1CCOCC1)C(=O)N2CC1CC1	7.00
CN(C)[C@]1(c2ccccc2)CC[C@]2(CC1)CN(CC(=O)NCC1CCCC[C@H]1O)C(=O)N2CC1CCC1 (stereo not given in full)	8.68
CN(C)[C@]1(c2ccccc2)CC[C@]2(CC1)CN(CC(=O)Nc1cccc(S(C)(=O)=O)n1)C(=O)N2CC1CCC1	9.05
CN(C)[C@]1(c2ccccc2)CC[C@]2(CC1)CN(CC(=O)Nc1cccc([S+](C)[O-])n1)C(=O)N2CC1CCC1 (stereo not given in full)	8.77
CNC(=O)CN1C[C@]2(CC[C@](c3ccccc3)(N(C)C)CC2)N(CCCOC)C1=O	7.21

target: Mu-type opioid receptor (Homo sapiens, UniProt P35372); assay: Human Mu-Opioid Peptide (hMOP) Receptor Binding Assay

Structure (SMILES)	pKi
Cn1cnc(CNC(=O)CN2C[C@]3(CC[C@](c4ccccc4)(N(C)C)CC3)N(CC3CCC3)C2=O)c1	7.56
CN(C)[C@]1(c2ccccc2)CC[C@]2(CC1)CN(CC(N)=O)C(=O)N2CC1(C#N)CCC1	7.77
CNC(=O)CN(C)C(=O)CN1C[C@]2(CC[C@@](NC)(c3ccccc3)CC2)N(CC2CCC2)C1=O	6.43
CN(C)CCNC(=O)CN1C[C@]2(CC[C@](c3ccccc3)(N(C)C)CC2)N(CC2CCC2)C1=O	7.20
CN(C)[C@]1(c2ccccc2)CC[C@]2(CC1)CN(CC(=O)Nc1cncnc1O)C(=O)N2CC1CCC1	7.80
CN(C)[C@]1(c2ccccc2)CC[C@]2(CC1)CN(CC(=O)NCc1cocn1)C(=O)N2CC1CCC1	7.92
CN(C)[C@]1(c2ccccc2)CC[C@]2(CC1)CN(CC(=O)Nc1ccccn1)C(=O)N2CC1CCC1	7.27
CN(C)C(=O)CN(C)C(=O)CN1C[C@]2(CC[C@](c3ccccc3)(N(C)C)CC2)N(CC2CCC2)C1=O	6.76
CN(C)[C@]1(c2ccccc2)CC[C@]2(CC1)CN(CC(=O)Nc1ccc(C(N)=O)cn1)C(=O)N2CC1CCC1	7.58
CN(CCO)C(=O)CN1C[C@]2(CC[C@](c3ccccc3)(N(C)C)CC2)N(CC2CCC2)C1=O	7.32
CNC(=O)CN1C[C@]2(CC[C@](c3ccccc3)(N(C)C)CC2)N(CC2(C)CCC2)C1=O	7.78
CN(C)[C@]1(c2cccc(F)c2)CC[C@]2(CC1)CN(CC(=O)NCCO)C(=O)N2CC1CCC1	6.87
CN(C)[C@]1(c2ccccc2)CC[C@]2(CC1)CN(CC(=O)Nc1ccccn1)C(=O)N2CC1(O)CCC1	7.00
COc1cncnc1NC(=O)CN1C[C@]2(CC[C@](c3ccccc3)(N(C)C)CC2)N(CC2CCC2)C1=O	7.43
COc1ncccc1CNC(=O)CN1C[C@]2(CC[C@](c3ccccc3)(N(C)C)CC2)N(CC2CCC2)C1=O	8.00
Cc1cccc(CNC(=O)CN2C[C@]3(CC[C@](c4ccccc4)(N(C)C)CC3)N(CC3CCC3)C2=O)n1	8.64
CN(C)[C@]1(c2ccccc2)CC[C@]2(CC1)CN(CC(N)=O)C(=O)N2CC1(O)CCC1	7.09
COCCN1C(=O)N(CC(=O)NCCO)C[C@]12CC[C@](c1ccccc1)(N(C)C)CC2	6.20
CN(C)[C@]1(c2ccccc2)CC[C@@]2(CC1)CN(CC(=O)N1CCS(=O)(=O)CC1)C(=O)N2CC1CC1	8.36
CN(C)[C@]1(c2ccccc2)CC[C@]2(CC1)CN(CC(=O)Nc1ccnnc1)C(=O)N2CC1CCC1	7.27

Structure (SMILES)	pKi
COc1ncc(CNC(=O)CN2C[C@]3(CC[C@](c4ccccc4)(N(C)C)CC3)N(CC3CCC3)C2=O)cn1	7.53
CN(C)[C@]1(c2ccccc2)CC[C@@]2(CC1)CN(CC(=O)N1CCOCC1)C(=O)N2	7.29
CN(C)[C@]1(c2ccccc2)CC[C@]2(CC1)CN(CC(=O)Nc1ncncc1C#N)C(=O)N2CC1CCC1	7.43
CNC(=O)CN1C[C@]2(CC[C@](c3ccccc3)(N(C)C)CC2)N(CC(C)C)C1=O	7.32
COc1ccccc1CNC(=O)CN1C[C@]2(CC[C@](c3ccccc3)(N(C)C)CC2)N(CC2CCC2)C1=O	8.36
CN(C)[C@]1(c2ccccc2)CC[C@]2(CC1)CN(CC(=O)N1CCOC(CO)C1)C(=O)N2CC1CCC1 (stereo not given in full)	7.34
CN(C)[C@]1(c2ccccc2)CC[C@]2(CC1)CN(CC(=O)Nc1ncccc1O)C(=O)N2CC1CCC1	7.87
CN(C)[C@]1(c2ccccc2)CC[C@]2(CC1)CN(CC(=O)NCC(N)=O)C(=O)N2CC1(C#N)CCC1	7.36
COCCOCCOCCOCCOCCOCCOCCOCCNC(=O)CN1C[C@]2(CC[C@](c3ccccc3)(N(C)C)CC2)N(CC2CCC2)C1=O	6.44
COc1cccc(CNC(=O)CN2C[C@]3(CC[C@](c4ccccc4)(N(C)C)CC3)N(CC3CCC3)C2=O)n1	8.22
CN(C)[C@]1(c2ccccc2)CC[C@]2(CC1)CN(CC(=O)NCc1cnco1)C(=O)N2CC1CCC1	8.00
CN(C)[C@]1(c2ccccc2)CC[C@]2(CC1)CN(CC(=O)NCC1(O)CCC1)C(=O)N2CC1CCC1	7.48
CN(C)[C@]1(c2ccccc2)CC[C@]2(CC1)CN(CC(=O)NC1COC1)C(=O)N2CC1CCC1	7.43
COc1ncncc1NC(=O)CN1C[C@]2(CC[C@](c3ccccc3)(N(C)C)CC2)N(CC2CCC2)C1=O	7.78
CN(C)[C@]1(c2ccccc2)CC[C@@]2(CC1)CN(CC(=O)NCCO)C(=O)N2CC1CCC1	7.09
COCCCN1C(=O)N(CC(=O)Nc2cccc(OC)n2)C[C@]12CC[C@](c1ccccc1)(N(C)C)CC2	6.76
CSc1[nH]nc(NC(=O)CN2C[C@]3(CC[C@](c4ccccc4)(N(C)C)CC3)N(CC3CCC3)C2=O)c1C#N	7.78
COCCNC(=O)CN1C[C@]2(CC[C@](c3ccccc3)(N(C)C)CC2)N(CC2CCC2)C1=O	7.22
COc1ccnc(CNC(=O)CN2C[C@]3(CC[C@](c4ccccc4)(N(C)C)CC3)N(CC3CCC3)C2=O)n1	8.57
CN(C)[C@]1(c2ccccc2)CC[C@]2(CC1)CN(CC(=O)NC1COC1)C(=O)N2CC1(O)CCC1	7.36

Structure (SMILES)	pKi
COc1cc(NC(=O)CN2C[C@]3(CC[C@](c4ccccc4)(N(C)C)CC3)N(CC3CCC3)C2=O)ccn1	7.12
CCN(C)[C@]1(c2ccccc2)CC[C@]2(CC1)CN(CC(=O)NC)C(=O)N2CC1CCC1	6.43
Cc1cccc(NC(=O)CN2C[C@]3(CC[C@](c4ccccc4)(N(C)C)CC3)N(CC3CCC3)C2=O)n1	7.29
COc1ncc(NC(=O)CN2C[C@]3(CC[C@](c4ccccc4)(N(C)C)CC3)N(CC3CCC3)C2=O)cn1	7.87
CN(C)[C@]1(c2ccccc2)CC[C@]2(CC1)CN(CC(=O)N1CCS(=O)(=O)CC1)C(=O)N2CC1(O)CCC1	6.44
COCCCN1C(=O)N(CC(=O)NCCC#N)C[C@]12CC[C@](c1ccccc1)(N(C)C)CC2	7.12
CN(C)[C@]1(c2ccccc2)CC[C@]2(CC1)CN(CC(=O)Nc1ccc(C#N)cn1)C(=O)N2CC1CCC1	7.21
CN(C)[C@]1(c2ccccc2)CC[C@]2(CC1)CN(CC(=O)Nc1ccncc1F)C(=O)N2CC1CCC1	7.38
CN(C)[C@]1(c2ccccc2)CC[C@]2(CC1)CN(CC(=O)N1CCOCC1)C(=O)N2CC1(O)CCC1	6.02
CN(C)[C@]1(c2ccccc2)CC[C@]2(CC1)CN(CC(=O)Nc1cccc(S(C)(=O)=O)n1)C(=O)N2CC1CCC1	7.63
CN(C)[C@]1(c2ccccc2)CC[C@]2(CC1)CN(CC(=O)Nc1cc(C(N)=O)ccn1)C(=O)N2CC1CCC1	7.30
CN(C)[C@]1(c2ccccc2)CC[C@]2(CC1)CN(CC(=O)N1CCC[C@H]1C(N)=O)C(=O)N2CC1CCC1	7.32
CNC(=O)CN1C[C@]2(CC[C@](c3ccccc3)(N(C)C)CC2)N(CC2CC2)C1=O	8.02
CN(C)[C@]1(c2ccccc2)CC[C@]2(CC1)CN(CC(=O)Nc1cncnc1)C(=O)N2CC1(O)CCC1	7.00
CN(C)[C@]1(c2ccccc2)CC[C@]2(CC1)CN(CC(=O)Nc1cccc([S+](C)[O-])n1)C(=O)N2CC1CCC1 (stereo not given in full)	7.43
CN(C)[C@]1(c2ccccc2)CC[C@]2(CC1)CN(CC(=O)Nc1nccs1)C(=O)N2CC1CCC1	7.09
CN(C)[C@]1(c2ccccc2)CC[C@]2(CC1)CN(CC(=O)NCc1ccccc1O)C(=O)N2CC1CCC1	7.78
Cc1cc(NC(=O)CN2C[C@]3(CC[C@](c4ccccc4)(N(C)C)CC3)N(CC3CCC3)C2=O)no1	7.36
CN(C)[C@]1(c2ccccc2)CC[C@]2(CC1)CN(CC(=O)N1CCC(S(C)(=O)=O)CC1)C(=O)N2CC1(O)CCC1	6.63

pKi: −log10 of the molar value. Several values for one entry are separate records, joined by “and”; a condition that tells them apart may be missing. Equal values may be shown once.
